Results on one substance are retold here after US6743429B2, “Use of calcitonin gene-related peptide in the prevention and alleviation of asthma and related bronchospastic pulmonary diseases” (Sherbrooke University, priority 1999, dated 2004).

Assay [1] has as its system guinea pigs (control and OA-sensitized). Nature of the assay: Substance P-induced increase in airway resistance (PIP) after intravenous CGRP. In kind it is in vivo, guinea pig. Here is the method:
(§1) Guinea pigs were anaesthetized with xylazine (20 mg/kg, i.m.) and ketamine hydrochloride (130 mg/kg, i.m.). The jugular vein and trachea were cannulated and animals were mechanically ventilated with a constant-volume rodent respirator (Havard, model 683) delivering a tidal volume of 5.5 ml/kg at a frequency of 60 cycles/min via the tracheal cannula. Airway resistance was measured by the overflow technique according to well-validated and standardized procedures. Briefly, ventilation overflow (i.e., the pulmonary insufflation pressure or PIP), was recorded at the side arm of the tracheal cannula by means of a differential pressure transducer (Gould P23 ID) connected to a Grass polygraph (model 7D). Airway responsiveness was assessed by measuring the changes in PIP following i.v. injections of the agonists. Changes in PIP, which were taken as an index of changed airway resistance, were measured and expressed in mm of mercury (mm Hg). Each agonist was injected through the jugular vein cannula in a volume of 100 μl followed by a washout with 200 μl of heparinized-saline (100 units/ml).
Before starting the experiment, guinea pig airway responsiveness was first tested by a single i.v. administration of 25 μg/kg of acetylcholine. […] Only guinea pigs (control and OA-sensitized) showing a reasonably strong (>20 mm Hg) airway constriction to the cholinergic agonist were used in this study. Thereafter, substance P (SP) which was used as the main non-specific spasmogen, was injected intravenously every 20 minutes to induce bronchoconstriction. Care was taken to choose a dose of SP (13.5 μg/kg) so that the same extent of airway constriction could be induced in both animal groups. SP (13.5 μg/kg) was then administered repeatedly (approximately 3 times) until a reproducible constriction (control response) was obtained. After two SP-induced bronchoconstrictions of similar amplitude, CGRP (0.38-114 μg/kg) was administered 5 minutes before a further challenge with SP and the SP challenge was then repeated. The resulting constriction was compared with the control response i.e. the mean of the two pre-inhibition bronchoconstrictions.

A further assay relates to allergic guinea pigs. Put plainly: Allergen (ovalbumin)-induced bronchospasm (PIP) in allergic guinea pigs. The assay is classed as in vivo, guinea pig. Conditions: CGRP pretreatment 3.8 to 114 mg/kg i.v., 5 minutes before OA 0.25 mg/kg i.v. On the procedure:
as §1, with “Each agonist was injected through the jugular vein cannula in a volume of 100 μl followed by a washout with 200 μl of heparinized-saline (100 units/ml).” left out
To determine the effect of CGRP on antigen-induced challenge in allergic guinea pigs, CGRP (3.8 to 114 mg/kg) was administered intravenously 5 minutes prior to the ovalbumin challenge (0.1 mg/kg, i.v.). […] In some experiments, systemic arterial blood pressure was monitored at the same time via a polyethylene catheter filled with heparinized-saline inserted into a carotid artery and linked to a pressure transducer (Gould P23 1 D) and a Grass polygraph.

Assay [2] concerns allergic sheep. Nature of the assay: Metacholine-induced non-specific airway responsiveness in allergic sheep. In kind it is in vivo. Conditions: inhaled 0.5 mg in 2 ml PBS. From the text: (§2) Eighteen sheep with a mean weight of 35 kg (range: 24 to 52 kg) were used for this study. […] Ten of these animals were defined as non-allergic and 8 as allergic, based on the absence or presence of both early and late airway responses after a standard inhalation challenge with Ascaris suum antigen. All sheep were allowed a 4-week recovery period after the allergen challenge before experimentation began. For each of the procedures hereafter presented, the unsedated animals were restrained on a standard shopping cart in the prone position and their heads were immobilized. […]
(§3) The techniques used for investigating airway mechanics were again well-validated and standardized procedures (as is usually the case with large mammals). […] Lateral pressure in the trachea was measured with a sidehole catheter (inner diameter=2.5 mm) advanced through and positioned distal to the tip of the endotracheal tube. […] The transpulmonary pressure and flow signals were recorded on a Hewlett Packard (model 7754B, Mass. USA) multichannel recorder, which was linked to a PC 386 Personal Computer (IBM Equipment, Montreal, Quebec) for online calculation of mean RL by dividing the change in transpulmonary pressure by the change in flow at mid-tidal volume (Vt) (obtained by digital integration). […]

The subject of assay [3] is allergic sheep. Put plainly: Ascaris suum antigen-induced early and late increases in pulmonary resistance in sheep. In kind it is in vivo. Conditions: aerosol 0.5 mg in 2 ml PBS pretreatment.
Description: as §2, §3

With calcitonin gene-related peptide [CGRP], in assay [1] (CGRP 3.8 mg/kg i.v., by itself), the “effect on baseline airway resistance” value was “did not affect”. Also, the “reduction in capability to exert bronchoprotective action (OA-sensitized versus control)” value in assay [1] (CGRP 114 mg/kg i.v.) was “more than 40%”. For the same substance, the “inhibition of SP-induced airway constriction” value in assay [1] (OA-sensitized animals, CGRP 114 mg/kg i.v.) is listed as 36%. For the same substance, the “prevention of SP-induced increase in airway constriction” value in assay [1] (OA-sensitized guinea pigs, CGRP 3.8 mg/kg i.v.) is reported as “failed to significantly prevent”. For the same substance, the “inhibition of SP-induced bronchoconstriction” value in assay [1] (control animals, highest dose used (0.38 to 114 mg/kg i.v.), 5 minutes before SP) is 60%. The “effect on response to SP (13.5 mg/kg)” value in assay [1] (non-sensitized animals, CGRP 3.8 mg/kg i.v.) is listed as “potently inhibited”. The “effect on OA-induced increase in airway resistance (PIP)” value with allergic guinea pigs is on record as “inhibited in a dose-related manner”. In the assay on allergic sheep [2], the “protection against metacholine-induced increase in airway resistance” value was found to be 100%. In the assay on allergic sheep [3], the “effect on acute (early phase) Ascaris suum-induced increase in RL” value is reported as “completely blocks” and the “effect on late phase bronchoconstriction to Ascaris suum antigen” value was “completely blocks”.
